From ChEMBL document CHEMBL2057200, “Design and synthesis of potent antagonists containing rigid spirocyclic privileged structures for the CGRP receptor” (Bioorg Med Chem Lett, 2012)

Species: Homo sapiens
Test: Inhibition of CGRP-induced dilation in potassium chloride pre-contracted ex vivo migraine model of human intracranial artery rings
Format: functional, tissue-based

SMILES | inhibition
O=C1Nc2ccccc2C2(CCN(C(=O)N[C@H](Cc3csc4ccccc34)C(=O)N3CCC(N4CCCCC4)CC3)CC2)N1 | Dose-dependent effect
O=C(N[C@H](Cc1csc2ccccc12)C(=O)N1CCC(N2CCCCC2)CC1)N1CCC2(CC1)N=C(c1ccccc1)NC2=O | Dose-dependent effect
